According to patent US20100048677A1 (NEW YORK BLOOD CENTER, published 2010):

Biological target: αIIb (INTEGRIN, ALPHA 2B; PLATELET GLYCOPROTEIN IIB OF IIB/IIIA COMPLEX, ANTIGEN CD41) (human) (UniProt P08514)
Experiment: αIIb complexes captured, mass spectrometry; No. Expts 1

Row | Substance | #Peptides [peptides]
1 | FAM175B (UNKNOWN PROTEIN) (from UniProt Q15018 1-415) | 7
2 | GOLGI ASSOCIATED PDZ AND COILED-COIL MOTIF CONTAINING (from UniProt Q9HD26 2-462) | 10
3 | TU …ON ELONGATION FACTOR, MITOCHONDRIAL (from UniProt P49411 47-455) | 10
4 | RIBOSOMAL PROTEIN, LARGE, P0 (from UniProt P05388 1-317) | 3
